Drawing on ChEMBL document CHEMBL1136147, “Sub-nanomolar hMC1R agonists by end-capping of the melanocortin tetrapeptide His-D-Phe-Arg-Trp-NH(2)” (Bioorg Med Chem Lett, 2003), this text covers Ki and EC50 for two compounds.

By UniProt entry, the sequences of proteins in these tests, tags left out.
UniProt P32245, whole entry: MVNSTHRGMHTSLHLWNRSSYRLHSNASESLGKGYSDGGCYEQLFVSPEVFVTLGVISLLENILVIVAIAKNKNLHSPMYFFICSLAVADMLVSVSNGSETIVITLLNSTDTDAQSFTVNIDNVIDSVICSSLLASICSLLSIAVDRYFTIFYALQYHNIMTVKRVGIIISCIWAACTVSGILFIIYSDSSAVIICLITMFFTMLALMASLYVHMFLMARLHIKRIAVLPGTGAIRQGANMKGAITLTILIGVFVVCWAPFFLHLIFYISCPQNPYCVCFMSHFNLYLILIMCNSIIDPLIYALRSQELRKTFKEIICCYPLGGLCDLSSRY

Structures are written as SMILES.

The target of assay [1] is T1, Melanocortin receptor 4 (Homo sapiens, UniProt P32245). Nature of the assay: Binding affinity towards human melanocortin 4 receptor (hMC4R).
The target in assay [2] is T1, Melanocortin receptor 4. Nature of the assay: In vitro agonist potency was evaluated in HEK293 cells transfected with human melanocortin receptor (hMC4R). Type of assay: functional, cell-based.

What is called Ki is the equilibrium dissociation constant of an inhibitor or competing ligand from its target. Low values mean a stronger hold on the target, high ones a looser hold on the target. As usually defined, the EC50 is the midpoint of the concentration-response curve. Higher therefore signals a need for much substance. `CC(=O)N[C@@H](Cc1c[nH]cn1)C(=O)N[C@@H](Cc1ccccc1)C(=O)N[C@@H](CCCN=C(N)N)C(=O)N[C@@H](Cc1c[nH]c2ccccc12)C(N)=O` displayed a Ki on Melanocortin receptor 4 [1] of 280 nM. The compound further showed an EC50 at Melanocortin receptor 4 [2] of 59.5 nM.

The compound `NC(=O)[C@H](Cc1c[nH]c2ccccc12)NC(=O)[C@H](CCCN=C(N)N)NC(=O)[C@@H](Cc1ccccc1)NC(=O)[C@H](Cc1cnc[nH]1)NC(=O)CCCc1ccccc1` came in with a Ki at Melanocortin receptor 4 [1] of 7.3 nM. At Melanocortin receptor 4 [2], this compound came in with an EC50 of 4.6 nM.
